Consider one molecule from US8058243B2, “Method for treating a brain cancer with ifenprodil” (HSC Research and Development Limited Partnership, priority 2006, dated 2011).

In this test the test system is murine neural precursor cells (neurosphere cultures). In words: HTS of LOPAC library against secondary neurosphere cultures, MTT proliferation assay at 3 μM, day 7 (z score, P value). The class given is cell-based, mouse. The note with it: for Z score: 3 μM.

For the molecule `CN(CCCl)Cc1cc(Cl)c(NC2=NCCN2)c(Cl)c1`, the “Z score” value (LOPAC library screen, MTT, neurosphere cultures) was found to be 0.8606 and the Z score (LOPAC screen, neurosphere MTT proliferation, day 7) is on record as 0.861. Also, the Activity entry (yes/no: significantly inhibited neurosphere proliferation (P<0.01) in primary screen) is on record as “no”.
